The experiment deals with Sodium-dependent serotonin transporter (Rattus norvegicus, UniProt P31652). Kind of experiment: Inhibition of [3H]paroxetine binding to Serotonin transporter.

Protein sequences, listed by entry. Tags and fused reporters are not part of them.
UniProt P31652, whole entry: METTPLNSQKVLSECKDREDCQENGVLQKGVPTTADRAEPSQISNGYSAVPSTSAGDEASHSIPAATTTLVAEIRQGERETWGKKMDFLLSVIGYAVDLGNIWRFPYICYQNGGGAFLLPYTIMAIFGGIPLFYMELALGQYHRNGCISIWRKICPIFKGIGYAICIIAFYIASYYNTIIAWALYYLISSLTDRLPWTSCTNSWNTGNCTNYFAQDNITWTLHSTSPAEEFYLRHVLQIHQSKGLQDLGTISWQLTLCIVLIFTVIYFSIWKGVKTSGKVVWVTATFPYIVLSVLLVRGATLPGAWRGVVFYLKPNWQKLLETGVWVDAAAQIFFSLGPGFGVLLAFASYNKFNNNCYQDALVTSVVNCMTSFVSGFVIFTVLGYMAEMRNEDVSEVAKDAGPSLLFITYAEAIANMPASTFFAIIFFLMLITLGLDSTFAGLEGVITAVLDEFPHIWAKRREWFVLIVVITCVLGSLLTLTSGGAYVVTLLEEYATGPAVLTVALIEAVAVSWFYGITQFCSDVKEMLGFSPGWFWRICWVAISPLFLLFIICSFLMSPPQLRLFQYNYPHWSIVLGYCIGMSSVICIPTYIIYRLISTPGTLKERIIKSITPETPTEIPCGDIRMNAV

For the compound `COC(=O)[C@@H]1C2CC[C@H](C[C@@H]1c1ccccc1)N2C`, the IC50 stood at 2000 nM.
For the compound `COC(=O)[C@H]1[C@@H](OC(=O)c2ccccc2)C[C@@H]2CC[C@H]1N2C` [COCAINE], the IC50 turned out to be 1060 nM.

For the origin of these results see ChEMBL document CHEMBL1125471, “Isopropyl and phenyl esters of 3 beta-(4-substituted phenyl)tropan-2 beta-carboxylic acids. Potent and selective compounds for the dopamine transporter” (J Med Chem, 1992).
